IC50 data for 1 molecule are collected here from ChEMBL document CHEMBL1125021, “4-[(Carboxymethyl)oxy]- and 4-[(carboxymethyl)amino]-5,7-dichloroquinoline-2-carboxylic acid: new antagonists of the strychnine-insensitive glycine binding site on the N-methyl-D-aspartate receptor complex” (J Med Chem, 1990).

The target in this test is Glutamate NMDA receptor. Put plainly: Binding activity against N-methyl-D-aspartate glutamate receptor in rat brain homogenate using [3H]CPP as the radioligand. In kind it is tissue-based.

Consider `O=C(O)c1cc(=O)c2ccccc2[nH]1` [TRANSTORINE], for which the IC50 turned out to be 71 µM.
